{"sequences": {"note": "Protein sequences, listed by entry. Tags and fused reporters are not part of them.", "UniProt P19020, whole entry": "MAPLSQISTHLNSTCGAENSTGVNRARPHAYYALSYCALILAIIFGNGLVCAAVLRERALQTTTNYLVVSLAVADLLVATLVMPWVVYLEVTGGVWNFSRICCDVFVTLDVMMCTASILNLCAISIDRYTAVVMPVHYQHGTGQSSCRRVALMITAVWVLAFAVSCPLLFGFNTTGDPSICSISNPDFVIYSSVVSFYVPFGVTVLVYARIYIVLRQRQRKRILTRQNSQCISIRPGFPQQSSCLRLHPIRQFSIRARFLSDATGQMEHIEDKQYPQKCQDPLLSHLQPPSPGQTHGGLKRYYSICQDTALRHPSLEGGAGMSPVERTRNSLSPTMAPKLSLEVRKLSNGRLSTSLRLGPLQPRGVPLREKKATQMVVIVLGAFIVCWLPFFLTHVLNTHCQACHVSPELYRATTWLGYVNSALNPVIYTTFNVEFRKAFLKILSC"}, "source": "BindingDB's records for doi:10.1007/s00213-009-1521-8", "about": "(Case Western Reserve University, 2009)", "molecular_target": "D(3) dopamine receptor (Rattus norvegicus, UniProt P19020)", "note": "pKi: −log10 of the molar value."}
{"molecule": "CCN1CCCC1CNC(=O)c1cc(S(=O)(=O)CC)c(N)cc1OC", "note": "(stereo unspecified) [NSC_2159]", "values": [{"measurement": "pKi", "result": 8.46}]}
